The target in this assay is recombinant human PDE4B (Homo sapiens (Human), UniProt Q07343). The assay can be described thus: In vitro inhibitory activity against PDE 4B enzyme (fluorescence polarization). In kind it is biochemical. The settings on record: 1 μM cAMP. As to the method: Experimental objective: to determine the AMP/GMP expression based on fluorescence polarization, i.e., to trace binding of AMP/GMP to antibody so as to indicate enzyme activity.
Experimental buffer solution: 10 mM Tris-HCl (pH 7.5), 5 mM MgCl2, 0.01% Brij 35, 1 mM DTT, and 1% DMSO.
Enzyme: recombinant human PDE4B (Gene accession number: NM_002600; amino acid 305-end) was expressed by baculovirus in Sf9 insect cells using an N-terminal GST tag, with molecularweight being 78 kDa.
Enzyme substrate: 1 μM cAMP
Detection: Transcreener® AMP2/GMP2 antibody and AMP2/GMP2 AlexaFluor633 tracer.
• 1. The recombinant human PDE4B enzyme and enzyme substrate (1 μM cAMP) were each dissolved in newly prepared experimental buffer solution; • 2. The PDE4B enzyme buffer solution was transferred into reaction wells; • 3. The compound which was dissolved in 100% DMSO was added to the reaction wells containing PDE4B enzyme buffer solution by acoustic technique (echo 550; millilambda range) and the mixture was incubated for 10 minutes at room temperature; • 4. The enzyme substrate buffer solution was added to the above reaction wells to initiate reaction; • 5. […] The measurement range of fluorescence polarization was Ex/Em=620/688.
Data analysis: the fluorescence polarization signal was converted to nM based on AMP/GMP standard curve and the percentage enzyme activity relative to DMSO control calculated by Excel. […]

Sequences of proteins named here, by UniProt entry; tags and fusion partners are left off. Residues count along the entry.
UniProt Q07343, 305-736 limits assumed: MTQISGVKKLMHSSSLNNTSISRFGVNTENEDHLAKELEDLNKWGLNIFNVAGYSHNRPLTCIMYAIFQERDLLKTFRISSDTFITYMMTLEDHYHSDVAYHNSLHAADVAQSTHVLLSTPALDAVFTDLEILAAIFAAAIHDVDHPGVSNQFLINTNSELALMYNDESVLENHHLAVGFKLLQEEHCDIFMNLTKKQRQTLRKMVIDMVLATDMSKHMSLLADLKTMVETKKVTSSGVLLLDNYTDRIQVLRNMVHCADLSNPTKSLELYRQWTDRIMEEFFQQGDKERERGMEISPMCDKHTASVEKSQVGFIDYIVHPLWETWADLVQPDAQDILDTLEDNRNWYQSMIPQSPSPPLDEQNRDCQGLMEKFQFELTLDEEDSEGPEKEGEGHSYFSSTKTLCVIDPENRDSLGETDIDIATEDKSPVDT

In the case of `CCOc1cc2c(cc1OC)-c1c/c(=N\c3c(C)cc(C)cc3C)n(CCCNc3nc[nH]n3)c(=O)n1CC2` [WX010], the half-maximal inhibitory concentration (IC50) was 9.8 nM.
